Protein sequences, listed by entry. Tags and fused reporters are not part of them. Residues count along the entry.
UniProt P23284, 34-216: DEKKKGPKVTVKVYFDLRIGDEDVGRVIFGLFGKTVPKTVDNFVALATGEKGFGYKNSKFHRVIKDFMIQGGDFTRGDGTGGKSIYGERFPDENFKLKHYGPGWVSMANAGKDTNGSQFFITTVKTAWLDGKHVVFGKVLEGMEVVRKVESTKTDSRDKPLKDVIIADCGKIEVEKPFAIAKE

According to patent publication US8901295B2 (Institut National de la Sante et de la Recherche Medicale …, priority 2009, dated 2014):

Target: Cyclophilin B (CypB) (Homo sapiens (Human), UniProt P23284)
Assay: Cyclophilin PPIase enzymatic assay (chymotrypsin coupled), CypB
Assay type: biochemical
Conditions: activity test at 100 μM on CypB
Procedure: Cyclophilin A, B protein carrying a hexahistidine tag (His-Tag) at the C-terminus, were expressed in Escherichia coli and purified. Briefly, cultures of C41(DE3) cells were grown at 37° C. for ˜1 h until the culture reached an optical density of 0.6 at 600 nm, and induced with 1 mM isopropyl β-D-thiogalactoside for 4 h at 37° C. or overnight at 22° C. for cylophilin A and cyclophilin B, respectively. Cell pellets (1 L) were resuspended in a lysis buffer (20 mM NaH2PO4 (pH 7.8), 300 mM NaCl, 7 mM β-mercaptoethanol, 1 mg/ml lysozyme, 0.1 U/μl Desoxyribonuclease and complete protease inhibitor tablets (Roche)). […] The bound protein was eluted in 1 ml fractions with buffer: (20 mM NaH2PO4 (pH7.8), 300 mM NaCl, 250 mM imidazole, 7 mM β-mercaptoethanol, 10% glycerol) and monitored by the Bradford colorimetric assay. The purity of each cyclophilin was determined by Coomassie-stained SDS-PAGE analysis.
The reaction was initiated by adding 20 μL of 3.2 mM peptide substrate (Suc-Ala-Ala-cis-Pro-Phe-pNA) in LiCl/TFE solution with rapid inversion. […] Absorbance readings were collected every 1 s by spectrophotometer. […] The percentage inhibition of cyclophilin PPiase activity were calculated from slopes and values obtained represent an average of at least two independent measurements.

## CCOC(=O)CNC(=O)NCc1ccccc1 [Compound F494]
  Inhibition (%): 22.7%
